The source of these data is patent US6521594 (LA JOLLA CANCER RESEARCH FOUNDATION, dated 2003).

Amino acid sequences for entries named in this document (tags omitted). Residues count along the entry.
Platelet glycoprotein IIb/IIIa, UniProt P05106, 27-788, chain 2 of 2: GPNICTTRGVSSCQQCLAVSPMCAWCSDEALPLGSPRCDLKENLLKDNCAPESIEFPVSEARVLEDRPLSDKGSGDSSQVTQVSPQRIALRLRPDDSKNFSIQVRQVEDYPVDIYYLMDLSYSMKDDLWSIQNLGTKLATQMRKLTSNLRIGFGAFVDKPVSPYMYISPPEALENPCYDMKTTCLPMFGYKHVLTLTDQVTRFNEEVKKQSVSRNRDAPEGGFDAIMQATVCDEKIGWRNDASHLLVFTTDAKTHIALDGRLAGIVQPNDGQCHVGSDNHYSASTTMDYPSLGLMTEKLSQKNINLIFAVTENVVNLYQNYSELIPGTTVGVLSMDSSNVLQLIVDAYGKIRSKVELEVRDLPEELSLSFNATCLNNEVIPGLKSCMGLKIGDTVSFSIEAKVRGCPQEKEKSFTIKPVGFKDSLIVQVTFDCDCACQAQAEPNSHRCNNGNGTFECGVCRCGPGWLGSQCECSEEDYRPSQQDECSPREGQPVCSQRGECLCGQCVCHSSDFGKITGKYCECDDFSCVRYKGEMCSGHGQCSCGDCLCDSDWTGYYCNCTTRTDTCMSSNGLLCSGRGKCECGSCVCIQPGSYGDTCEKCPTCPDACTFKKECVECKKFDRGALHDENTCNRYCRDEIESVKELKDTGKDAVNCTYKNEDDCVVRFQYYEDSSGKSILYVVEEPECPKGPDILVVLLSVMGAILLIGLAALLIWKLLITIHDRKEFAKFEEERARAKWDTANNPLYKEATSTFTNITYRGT
UniProt P06756, 31-1048, chain 1 of 2: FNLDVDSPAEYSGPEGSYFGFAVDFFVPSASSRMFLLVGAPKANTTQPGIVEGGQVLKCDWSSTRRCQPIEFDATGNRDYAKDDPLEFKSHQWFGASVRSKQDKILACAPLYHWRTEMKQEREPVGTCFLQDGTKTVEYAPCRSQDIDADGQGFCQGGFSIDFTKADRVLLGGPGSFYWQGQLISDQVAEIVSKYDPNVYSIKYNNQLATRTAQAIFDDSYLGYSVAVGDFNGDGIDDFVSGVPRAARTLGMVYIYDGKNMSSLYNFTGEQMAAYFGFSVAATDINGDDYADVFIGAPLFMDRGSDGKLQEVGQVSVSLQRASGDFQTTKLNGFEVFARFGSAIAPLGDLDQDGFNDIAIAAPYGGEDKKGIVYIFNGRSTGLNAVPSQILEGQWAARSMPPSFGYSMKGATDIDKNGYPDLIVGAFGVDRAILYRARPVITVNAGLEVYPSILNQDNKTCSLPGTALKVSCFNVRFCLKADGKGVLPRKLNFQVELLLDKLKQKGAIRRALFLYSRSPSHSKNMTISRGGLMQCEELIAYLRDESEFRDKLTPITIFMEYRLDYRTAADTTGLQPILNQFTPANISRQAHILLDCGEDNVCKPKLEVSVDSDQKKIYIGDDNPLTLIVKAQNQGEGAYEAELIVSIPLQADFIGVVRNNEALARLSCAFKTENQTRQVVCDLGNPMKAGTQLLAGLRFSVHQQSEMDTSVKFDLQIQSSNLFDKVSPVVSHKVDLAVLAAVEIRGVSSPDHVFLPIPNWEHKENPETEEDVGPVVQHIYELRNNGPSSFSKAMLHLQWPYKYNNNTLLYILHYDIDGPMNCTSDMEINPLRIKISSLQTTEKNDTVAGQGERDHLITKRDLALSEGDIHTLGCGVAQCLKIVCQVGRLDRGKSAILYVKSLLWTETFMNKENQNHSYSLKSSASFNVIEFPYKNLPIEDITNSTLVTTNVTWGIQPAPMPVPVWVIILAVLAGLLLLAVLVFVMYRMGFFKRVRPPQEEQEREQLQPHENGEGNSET
UniProt P08648, 42-1049, chain 1 of 2: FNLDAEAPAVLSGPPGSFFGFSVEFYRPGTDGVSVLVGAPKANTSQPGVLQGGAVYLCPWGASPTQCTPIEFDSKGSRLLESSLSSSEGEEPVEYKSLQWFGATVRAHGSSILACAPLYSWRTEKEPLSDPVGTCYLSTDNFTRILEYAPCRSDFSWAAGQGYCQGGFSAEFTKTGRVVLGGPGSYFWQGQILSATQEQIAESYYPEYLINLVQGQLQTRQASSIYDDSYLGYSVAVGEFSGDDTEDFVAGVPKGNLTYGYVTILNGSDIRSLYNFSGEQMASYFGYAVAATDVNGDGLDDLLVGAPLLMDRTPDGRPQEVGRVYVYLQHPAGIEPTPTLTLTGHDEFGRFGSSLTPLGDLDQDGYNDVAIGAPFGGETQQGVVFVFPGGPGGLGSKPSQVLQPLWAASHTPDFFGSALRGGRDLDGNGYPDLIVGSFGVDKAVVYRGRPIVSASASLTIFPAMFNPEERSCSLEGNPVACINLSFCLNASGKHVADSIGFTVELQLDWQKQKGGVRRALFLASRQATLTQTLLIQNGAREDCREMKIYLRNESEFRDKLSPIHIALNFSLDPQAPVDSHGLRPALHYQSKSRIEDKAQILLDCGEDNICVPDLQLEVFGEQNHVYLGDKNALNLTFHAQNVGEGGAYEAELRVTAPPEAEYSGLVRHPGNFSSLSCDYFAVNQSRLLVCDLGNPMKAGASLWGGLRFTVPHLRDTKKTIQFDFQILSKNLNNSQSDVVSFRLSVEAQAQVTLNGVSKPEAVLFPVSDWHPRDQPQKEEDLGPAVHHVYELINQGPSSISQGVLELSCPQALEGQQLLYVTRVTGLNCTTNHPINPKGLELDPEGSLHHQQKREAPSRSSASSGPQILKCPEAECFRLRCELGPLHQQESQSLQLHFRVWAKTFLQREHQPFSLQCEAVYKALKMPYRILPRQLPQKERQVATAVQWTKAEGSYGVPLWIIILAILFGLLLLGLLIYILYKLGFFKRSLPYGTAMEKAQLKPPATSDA

Test [1] has as its target T1, Platelet glycoprotein IIb/IIIa (human, UniProt P08514 32-1039; P05106 27-788).
T1 construct: mature; on human platelets in the aggregation assays (functional rows); also called GP IIb/IIIa; GPIIbIIIa
Kind of test: competition, ELISA or liposome assay.

For test [2], the target named is T2, Vitronectin receptor (human, UniProt P06756 31-1048; P05106 27-788).
T2 construct: mature; also called Vn-R; VnR
Kind of test: competition, ELISA or liposome assay, vitronectin coated. A general note: An ELISA detects its analyte on a solid surface through an enzyme-linked reagent.

Test [3] has as its target T1, Platelet glycoprotein IIb/IIIa. The test is described as follows: competitive ELISA vWF/IIbIIIa.
Test [4] has the same target. The test is described as follows: cell-based or functional assay.
In a further test the target is T3, Fibronectin receptor (human, UniProt P08648 42-1049; P05556 21-798).
T3 construct: mature; Purified on a 110 kd fibronectin fragment column; also called Fn-R; FnR
Kind of test: competitive ELISA, fibronectin coated.

The target of test [5] is T1, Platelet glycoprotein IIb/IIIa. The test is described as follows: cell-based or functional assay. The source holds these as a separate data set.
In test [6] the target is T2, Vitronectin receptor. The test is described as follows: competitive ELISA Vn/VnR.
The target of test [7] is T1, Platelet glycoprotein IIb/IIIa. The test is described as follows: competitive ELISA Fg/IIbIIIa.

As usually defined, the IC50 is the concentration at which inhibition is half-maximal. A higher IC50 goes with weaker potency in that assay. Consider RXGHRGDFRCR (Pmc at 2) [R(Pmc)GHRGDFRCR], for which the IC50 in test [1] was 43 nM.
Take GXGRGDSPCA (Pen at 2, cyclic) [G(Pen)GRGDSPCA]: the IC50 in test [1] was 290 nM; with Vitronectin receptor [2], 150 nM.
In turn, RXGHRGDXRCR (Pmc at 2; p-iodo-Phe at 8, also called 7B) [R(Pmc)GHRGD(p-I-F)RCR] gave an IC50 in test [3] of 11.8 nM.
For the molecule RXGHRGDXRCR (D-Pen at 2; p-iodo-Phe at 8) [R(dPen)GHRGD(p-iodo-Phe)RCR], in test [1], the IC50 is 23 nM. Also, the “IC50, ADP-Stimulated Aggregation” value in test [4] turned out to be 0.78 µM.
For the molecule RXGHRGDXRCR (Pmc at 2; O-n-butyl-Tyr at 8) [R(Pmc)GHRGD(O-n-butyl-Tyr)RCR], the IC50 in test [1] was 28 nM; in the test with Vitronectin receptor [2], 2200 nM. Also, the “IC50, ADP-Stimulated Aggregation” value in test [4] was found to be 0.35 µM.
As to RXGHRGDXRCR (Pmc at 2; O-n-hexyl-Tyr at 8) [R(Pmc)GHRGD(O-n-hexyl-Tyr)RCR], the “IC50, ADP-Stimulated Aggregation” value in test [4] was 0.96 µM.

B1: R9GDS (peptide)
peptide: RRRRRRRRRGDS
notes: R9 read as nine Arg; this reading is not confirmed by the text
Molecule B1 returned an IC50 with Fibronectin receptor of 640 nM.
RXGHRGDXRCR (not fully specified; Pmc at 2; O-Me-Tyr at 8, also called R(Pmc)GHRGD(Y-OMe)RCR; 5O) [R(Pmc)GHRGD(O-Me-Tyr)RCR]: in test [5], the “IC50 (µM) Human Platelet Aggregation” value worked out at 0.56 µM. Besides, the “IC50, ADP-Stimulated Aggregation” value in test [4] was 0.83 µM. Further, the IC50 in test [3] amounted to 15.7 nM.
Consider RXGHRGDXRCR (Pmc at 2; p-nitro-Phe at 8, also called 7T; R(Pmc)GHRGD(p-NO2-F)RCR) [R(Pmc)GHRGD(p-nitro-Phe)RCR], for which the “IC50 (µM) Human Platelet Aggregation” value in test [5] amounted to 0.38 µM. In test [1], the IC50 is 23 nM. Further, in test [4], the “IC50, ADP-Stimulated Aggregation” value worked out at 0.38 µM.
For the molecule CNPRGDXRC (N-terminal acetyl; O-Me-Tyr at 7; C-terminal amide, also called 8X; 8×) [AcCNPRGD(O-Me-Tyr)RC-NH2], the IC50 stood at 4700 nM with Vitronectin receptor [6], 8.7 nM in test [7], 4700 nM with Vitronectin receptor [2] and 14.8 nM in test [3].
GRGDSP (also called prototype linear peptide): the IC50 with Fibronectin receptor is 32 nM.

B2: Ac(dPen)NPRGD(O-Me-Tyr)RC-NH2 (peptide)
peptide: XNPRGDXRC
modifications: N-terminal acetyl; D-Pen at 1; O-Me-Tyr at 7; C-terminal amide
notes: also called 10X; Ac(dPen)NPRGDY-OMeRCNH2
As to B2, in test [5], the “IC50 (µM) Human Platelet Aggregation” value turned out to be 0.17 µM. In addition, in test [4], the “IC50, ADP-Stimulated Aggregation” value was 0.17 µM.
Take RXGHRGDXRCR (Pen at 2; Cha at 8) [R(Pen)GHRGD(Cha)RCR]: the “IC50, ADP-Stimulated Aggregation” value in test [4] came out at 4.1 µM.
In the case of CNPRGDXXC (N-terminal acetyl; O-Me-Tyr at 7; Nle at 8; C-terminal amide, also called 11V) [Ac-CNPRGD(Y-OMe)(Nle)C-NH2], the IC50 with Vitronectin receptor [6] amounted to 108 nM; in test [7] it was 15.2 nM; in test [3], 18.6 nM.

B3: Ac-CNPRGD(Y-OMe)OC-NH2 (peptide)
peptide: CNPRGDXXC
modifications: N-terminal acetyl; O-Me-Tyr at 7; 'O' at 8 as printed (letter not explained, presumably Orn); C-terminal amide
notes: also called 11P
Consider B3, for which the IC50 was 63.5 nM with Vitronectin receptor [6], 44.5 nM in test [7] and 9.9 nM in test [3].
With RXGHRGDXRCR (am-Pmp (Pmc) at 2; TyrMe at 8) [R(am-Pmp)GHRGD(TyrMe)RCR], the IC50 in test [1] amounted to 18 nM. Further, in test [4], the “IC50, ADP-Stimulated Aggregation” value was found to be 0.45 µM.
Regarding CNPRGDXXC (N-terminal acetyl; O-Me-Tyr at 7; D-Arg at 8; C-terminal amide, also called 11L) [Ac-CNPRGD(Y-OMe)(dR)C-NH2], the IC50 with Vitronectin receptor [6] was 1820 nM; in test [7], 932 nM; in test [3] it was 640 nM. Further, the “IC50 (µM) Human Platelet Aggregation” value in test [5] came out at 7.3 µM.
In the case of CNPRGDXXC (N-terminal acetyl; O-Me-Tyr at 7; Cit at 8; C-terminal amide, also called 11S) [Ac-CNPRGD(Y-OMe)(Cit)C-NH2], the IC50 came to 891 nM with Vitronectin receptor [6], 102 nM in test [7] and 27.1 nM in test [3].
RXGHRGDXRCR (Pmc at 2; p-amino-Phe at 8) [R(Pmc)GHRGD(p-amino-Phe)RCR]: the IC50 in test [1] stood at 340 nM.
Turning to RXGHRGDXRCR (Pmc at 2; Hpa at 8) [R(Pmc)GHRGD(Hpa)RCR], in the test with Vitronectin receptor [2], the IC50 came to 4200 nM.
Regarding RXGHRGDXRCR (Pen at 2; 1-Nal at 8) [R(Pen)GHRGD(1-Nal)RCR], the “IC50, ADP-Stimulated Aggregation” value in test [4] came out at 29 µM.
Turning to RXGHRGDXRCR (Pmc at 2; Phg at 8) [R(Pmc)GHRGD(Phg)RCR], the results for the IC50 (in test [1]; in the test with Vitronectin receptor [2]) were 23 nM and 790 nM, respectively.
Consider GRGDSPDG (also called 2H), for which the IC50 in test [1] was 250 nM.
As for YRGDSPDG, in the test with Fibronectin receptor, the IC50 was 1100 nM. This counts as single-digit micromolar.
Regarding RXGHRGDXRCR (Pmc at 2; 3,5-diiodo-Tyr at 8) [R(Pmc)GHRGD(3,5-diiodo-Tyr)RCR], the IC50 in test [1] was 13 nM. Further, the “IC50, ADP-Stimulated Aggregation” value in test [4] came out at 1.1 µM.
